Results taken from patent US7217730B2, “Method for the use of pyranoindole derivatives to treat infection with Hepatitis C virus” (Wyeth, priority 2002, dated 2007).

Tested on: Hepatitis C virus replicon (1b) in Clone A cells (Huh-7)
Experiment: HCV replicon ELISA (NS5a) in Clone A cells
Assay type: cell-based
Details: reference compound, 3 days
Protocol: The ability of the compounds of the present invention to inhibit Hepatitis C virus replicon constitutively expressed in a human liver cell line was established by the following experimental procedure: • Clone A cells (licensed from Apath, LLC) are derived from Huh-7 cells (human hepatoma cell line) and constitutively express the HCV replication proteins with concomitant amplification the HCV replicon (1b) genome. Cells are maintained and passaged in DMEM/10% FCS/1 mg/ml G418 (Geneticin from Gibco #11811-023; other media components as described below in “elisa media”). Care should be taken to maintain cell monolayers at a subconfluent state by 1:3 or 1:4 passages every 3–4 days. The replicon is extremely sensitive to the cellular metabolism/proliferation state and replicon copy number will rapidly decline in confluent monolayers (resting cells). Under ideal conditions each cell has, on average, 1000 copies of the HCV replicon genome.
Dulbecco's Modified Eagle Media (DMEM) (Gibco #12430-047)
2% Fetal Calf Serum (FCS) (HyClone #SH30070.03)
1× Non-essential amino acids (NEAA) (Gibco #11140-050)
Glutaraldehyde (Fisher #02957-4)
Superblock in Phosphate Buffered Saline (PBS) (Pierce #37515) […]
10 μl of compounds (in DMSO) are added to column 3 of the mother plate. […] Mother plates are set aside until ready for serial dilution to be performed. […]
Read plates with optical density (O.D.) 450 filter. […]

## Interferon-a2: reference compound of the HCV replicon ELISA assay
  IC50: 4–30 U/ml
